The source of these data is PMC12598741 (Antibody Therapeutics, 2025).

Amino acid sequences for entries named in this document (tags omitted). Residues count along the entry.
UniProt P08508, 31-215: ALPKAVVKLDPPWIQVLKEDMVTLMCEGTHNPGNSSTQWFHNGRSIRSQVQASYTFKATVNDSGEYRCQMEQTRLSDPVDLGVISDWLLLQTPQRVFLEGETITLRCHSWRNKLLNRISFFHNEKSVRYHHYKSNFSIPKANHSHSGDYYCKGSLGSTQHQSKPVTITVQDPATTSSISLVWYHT

For the assay, the target named is mouse CD16 (mCD16), his-tagged (Mus musculus, UniProt P08508). As to the kind of experiment: BLI. Particulars: both partners purified.

B1: hIgG4 bsAb by modular replacement: golimumab (Gmab) heavy chain with L6 light chain (bispecific antibody, V domains shown)
VH: QVQLVESGGGVVQPGRSLRLSCAASGFIFSSYAMHWVRQAPGNGLEWVAFMSYDGSNKKYADSVKGRFTISRDNSKNTLYLQMNSLRAEDTAVYYCARDRGIAAGGNYYYYGMDVWGQGTTVTVSS
VL: EIVLTQSPGTLSLSPGERATLSCRASGSTFSSYTLAWYQQKPGQAPRLLIYIYSDGGRTSRATGIPDRFSGSGSGTDLTLTISRLEPEDFAVYYCNAESPFYDYDYWGKGTKVEIK
As to B1, the binding result is on record as “binds”.
